Molecular target: human CYP11B2 (Homo sapiens (Human), UniProt P19099)
Experiment: Inhibitory effect on hCYP11B2 (aldosterone production by mitochondrial fraction of V79 cells stably expressing human CYP11B2, HTRF)
Format: biochemical
Details: 0.5 μmol/L deoxycorticosterone, 150 μmol/L NADPH, 1.5-2 hours at room temperature
Protocol: Experimental Example 1 (Inhibitory Effect on hCYP11B2)
The pcDNA3.1-human CYP11B2 plasmid was transfected into a Chinese hamster lung fibroblast V79 cell line to produce a cell line stably expressing human CYP11B2 gene.
The cells were cultured and grown in the Dulbecco's modified Eagle's/Ham's medium supplemented with 10% fetal bovine serum and 1% G418 disulfate solution under the environment of 37° C., 95% air, and 5% CO2, and the grown cells were harvested.
Then, the cells were fractionated to obtain mitochondria by reference to a method described in Chabre et al. JCE 86 M 85 (11) 4060-68, 2000. In particular, the cells suspended in a 5 mmol/L Tris-HCl buffer (pH 7.4) containing 250 mmol/L sucrose were homogenized in a Teflon (Registered Trademark) Potter Elvehjem homogenizer, and then the suspension was centrifuged (800×g, 15 min.). […]
The mitochondrial fraction diluted with a buffer containing 10 mmol/L KH2PO4, 10 mmol/L Tris, 20 mmol/L KCl, 25 mmol/L sucrose, 5 mmol/L MgCl2, and 0.05% bovine serum albumin was dispensed to a 96-well plate. […] An amount of the produced aldosterone in the incubated solution was determined by using HTRF (Homogeneous Time Resolved Fluorescence) method.
IC 50 (nmol/L) was calculated by analyzing the aldosterone production inhibition rate (%) of each concentration of compounds by non-linear regression to a logistic curve.

Protein sequences, listed by entry. Tags and fused reporters are not part of them. Residues count along the entry.
UniProt P19099, 25-503: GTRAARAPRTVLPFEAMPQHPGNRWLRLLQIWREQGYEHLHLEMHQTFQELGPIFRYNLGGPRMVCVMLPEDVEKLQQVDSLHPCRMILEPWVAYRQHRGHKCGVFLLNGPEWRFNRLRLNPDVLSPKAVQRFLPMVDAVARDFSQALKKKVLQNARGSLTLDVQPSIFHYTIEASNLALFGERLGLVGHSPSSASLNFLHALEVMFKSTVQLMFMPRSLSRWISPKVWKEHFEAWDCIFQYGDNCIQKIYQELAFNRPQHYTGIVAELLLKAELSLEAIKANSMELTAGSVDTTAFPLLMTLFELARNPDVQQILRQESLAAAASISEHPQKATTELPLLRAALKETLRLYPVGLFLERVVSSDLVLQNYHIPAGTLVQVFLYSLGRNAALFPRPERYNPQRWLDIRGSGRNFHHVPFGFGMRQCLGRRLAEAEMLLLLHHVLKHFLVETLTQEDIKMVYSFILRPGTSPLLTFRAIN

Row | SMILES | IC50 [nM]
1 | CN(C)[C@H]1CC[C@H](NC(=O)CN2CCN(c3nncc(-c4ccc(F)cc4)n3)CC2)CC1 [Example 22, 3-[4-[[trans-4-(dimethylamino)cyclohexyl]carbamoylmethyl]piperazin-1-yl]-5-(4-fluorophenyl)-1,2,4-triazine] | 17
2 | CN(C)[C@H]1CC[C@H](NC(=O)CN2CCN(c3nncc([C@H]4CC[C@H](C)CC4)n3)CC2)CC1 [Example 124, 3-[4-[[trans-4-(dimethylamino)cyclohexyl]carbamoylmethyl]piperazin-1-yl]-5-(trans-4-methylcyclohexyl)-1,2,4-triazine] | 16
